Experimental data reported in ChEMBL document CHEMBL4411282, “Fragment-based drug discovery of triazole inhibitors to block PDEδ-RAS protein-protein interaction” (Eur J Med Chem, 2019).

Protein sequences, listed by entry. Tags and fused reporters are not part of them. Lines headed by an entry give the natural chain unless they say otherwise; changes in a name come on top.
UniProt O43924: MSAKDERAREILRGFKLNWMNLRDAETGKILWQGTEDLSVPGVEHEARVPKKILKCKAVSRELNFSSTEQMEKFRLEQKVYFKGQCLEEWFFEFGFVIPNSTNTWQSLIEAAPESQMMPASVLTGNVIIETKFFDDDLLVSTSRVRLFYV

Biological target: Retinal rod rhodopsin-sensitive cGMP 3',5'-cyclic phosphodiesterase subunit delta (Homo sapiens, UniProt O43924)
Test: Inhibition of N-terminal His6-tagged PDEdelta (unknown origin) expressed in Escherichia coli BL21(DE3)-condon plus-RIL cells after 4 hrs by fluorescence polarization assay

IC50: 21 nM
Compound: c1ccc(Cn2c(-c3ccc(OC[C@H](C4CCNCC4)n4c(-c5ccccc5)nc5ccccc54)cc3)nc3ccccc32)cc1
